Measurements: publication PMC9997068, “Impact of Gastric pH Variations on the Release of Amorphous Solid Dispersion Formulations Containing a Weakly Basic Drug and Enteric Polymers” (Molecular Pharmaceutics, 2023)
Like-named read-outs stand apart in the source and are kept apart here.

polymer solubility (pH 5.5) [µg/mL] | polymer solubility (pH 6.5) [µg/mL] | Substance
1401 ± 69 | – | hydroxypropyl methylcellulose acetate succinate [HPMCAS-MF]
1687 ± 47 | > 20000 | hydroxypropyl methylcellulose acetate succinate [HPMCAS-LF]
